{"source": "patent US9968573B2", "about": "“Endoprosthesis having and active substance coating” (HEMOTEQ AG, priority 2011, dated 2018)", "key": {"[1]": {"assay": "In vitro elution of antibiotic from coated titanium samples (ninhydrin colour reaction)", "type": "physicochemical", "conditions": "within 11 days, static aqueous system, 37°", "experimental": "FIG. 6 In vitro experiments show, that there is no controlled in vitro release of gentamicin palmitate (within 11 days) but rather high initial concentration without apparent release delay, wherein, compared to gentamicin pantothenate and gentamicin pantothenate/PVP with 100% release, only 58% of gentamicin are released.\nTherefore the samples are given in 2 mL demineralized water and maintained at 37° over a set period of time in a static aqueous system. At fixed times each 50 μL sample volume are taken. The determination of the antibiotic amount in the sample was done by means of ninhydrin color reaction. This method of determination of amount works for all antibiotics, which have amino groups, such as illustrated representatively with the example of the structure of the amino glycoside gentamicin: […]"}, "[2]": {"test_system": "L929 cells", "conditions": "Ti-Cylinder, rough surface", "experimental": "This allows a conclusion on the proliferation of the cells during incubation."}, "[3]": {"conditions": "calculated, assuming immediate and complete release"}}, "note": "Where two headings read alike, the source gives them in different places."}
{"substance": "Gentamicin-Penta-Pantothenate", "values": [{"measurement": "release of gentamicin from coating", "setting": "[1]", "result": 100, "unit": "%"}, {"measurement": "Cytotoxic according to ISO 10993-5", "setting": "[2]; 700 μg/cm^2", "result": "No"}, {"measurement": "Cytotoxic according to ISO 10993-5", "setting": "[2]; 800 μg/cm^2", "result": "No"}, {"measurement": "Cytotoxic according to ISO 10993-5", "setting": "[2]; 900 μg/cm^2", "result": "No"}, {"measurement": "maximum dose classified as safe (upper limit)", "setting": "[3]", "result": 873, "unit": "μg/cm^2"}]}
